Experimental data as given in US7160853B2, “Protocol for paracentesis” (priority 2000, dated 2007).

System: cirrhotic patients with tense ascites
Test: Clinical comparison of terlipressin and albumin in patients treated by paracentesis
Type: in vivo, human
Conditions: for Aldosteronaemia: plasma aldosterone; for Aldosteronaemia / Reninaemia: marker of blood volume; for Reninaemia: plasma renin
From the text: Four were subsequently excluded prior to treatment.

Albumin: 20% human albumin, derived from donated human blood, given by infusion
Survival at 3 months (3 months): 89% | Blood pressure (4–6 days later): 79 ± 3 mmHg | Creatininaemia (4–6 days later): 71 ± 6 | Natraemia (4–6 days later): 132 ± 1 mmol/L | Weight (4–6 days later): 69 ± 4 kg | Aldosteronaemia (4–6 days later): 1420 ± 292 pg/mL | Reninaemia (4–6 days later): 223 ± 74 pg/mL | Blood pressure (Before): 81 ± 4 mmHg | Creatininaemia (Before): 74 ± 4 | Natraemia (Before): 134 ± 1 mmol/L | Weight (Before): 72 ± 5 kg | Aldosteronaemia (Before): 1149 ± 324 pg/mL | Reninaemia (Before): 194 ± 47 pg/mL | Effectiveness in treating hypovolaemia (as indicated by the values for reninaemia and aldosteronaemia): equally effective | Period between paracentesis treatment and discharge from hospital (n = 10 per group): 5.3 ± 0.3 days
